Like-named read-outs stand apart in the source and are kept apart here.
What was measured:
[1] = target: EGFR LRCS (L858R/C797S) (Homo sapiens, UniProt P00533, C797S/L858R); assay: Biochemical EGFR kinase inhibition (Lance Ultra TR-FRET), L858R/C797S; details: read-out: EGFR LRCS IC50
[2] = target: EGFR WT (Homo sapiens, UniProt P00533); assay: Biochemical EGFR kinase inhibition (Lance Ultra TR-FRET), wildtype; details: read-out: EGFR WT IC50; ATP at Km
[3] = target: EGFR D19CS (del19/C797S) (Homo sapiens, UniProt P00533, C797S/DEL746-750); assay: Biochemical EGFR kinase inhibition (Lance Ultra TR-FRET), del19/C797S; details: read-out: EGFR D19CS IC50
[4] = target: EGFR D19TMCS (del19/T790M/C797S) (Homo sapiens, UniProt P00533, C797S/DEL746-750/T790M); assay: Biochemical EGFR kinase inhibition (Lance Ultra TR-FRET), del19/T790M/C797S; details: read-out: EGFR D19TMCS IC50
[5] = target: EGFR LRTMCS (L858R/T790M/C797S) (Homo sapiens, UniProt P00533, C797S/L858R/T790M); assay: Biochemical EGFR kinase inhibition (Lance Ultra TR-FRET), L858R/T790M/C797S; details: read-out: EGFR LRTMCS IC50

Sequences of proteins named here, by UniProt entry; tags and fusion partners are left off. A change or cut given only in a name is not applied to a line headed by its entry. A line that says so, or that is headed by a name, gives the form on record, which may keep a tag or linker. Residues count along the entry.
UniProt P00533, 25-1210 C797S/L858R limits assumed: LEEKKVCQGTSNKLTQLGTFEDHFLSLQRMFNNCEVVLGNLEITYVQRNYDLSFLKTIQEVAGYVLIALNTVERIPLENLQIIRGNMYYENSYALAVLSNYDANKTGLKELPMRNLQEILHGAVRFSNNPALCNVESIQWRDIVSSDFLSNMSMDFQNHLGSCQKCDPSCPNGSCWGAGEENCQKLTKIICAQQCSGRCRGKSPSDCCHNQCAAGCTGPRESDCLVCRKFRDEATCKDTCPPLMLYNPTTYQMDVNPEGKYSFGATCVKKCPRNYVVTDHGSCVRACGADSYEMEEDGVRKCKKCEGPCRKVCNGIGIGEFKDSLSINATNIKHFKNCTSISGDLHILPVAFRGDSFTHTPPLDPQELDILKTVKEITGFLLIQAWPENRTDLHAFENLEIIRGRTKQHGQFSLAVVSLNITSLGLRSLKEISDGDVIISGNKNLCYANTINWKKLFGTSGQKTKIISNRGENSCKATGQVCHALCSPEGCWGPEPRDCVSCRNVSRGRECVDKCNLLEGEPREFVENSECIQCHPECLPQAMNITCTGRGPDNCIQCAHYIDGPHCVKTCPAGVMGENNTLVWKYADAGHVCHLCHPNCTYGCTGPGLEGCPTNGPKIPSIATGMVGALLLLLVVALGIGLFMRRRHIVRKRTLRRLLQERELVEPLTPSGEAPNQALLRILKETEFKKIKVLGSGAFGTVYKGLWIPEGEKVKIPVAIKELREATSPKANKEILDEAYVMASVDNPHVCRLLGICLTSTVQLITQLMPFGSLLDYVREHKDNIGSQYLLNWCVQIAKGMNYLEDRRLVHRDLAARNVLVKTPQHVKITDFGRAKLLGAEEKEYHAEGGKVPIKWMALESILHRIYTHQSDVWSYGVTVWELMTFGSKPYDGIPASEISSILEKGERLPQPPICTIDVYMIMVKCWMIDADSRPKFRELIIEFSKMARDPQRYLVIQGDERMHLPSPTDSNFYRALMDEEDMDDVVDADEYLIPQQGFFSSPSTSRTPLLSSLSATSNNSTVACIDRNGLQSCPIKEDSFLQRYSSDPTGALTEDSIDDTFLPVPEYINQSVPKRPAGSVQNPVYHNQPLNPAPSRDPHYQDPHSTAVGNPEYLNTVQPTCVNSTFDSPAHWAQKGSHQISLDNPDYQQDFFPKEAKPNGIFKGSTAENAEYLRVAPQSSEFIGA
UniProt P00533, 25-1210 T790M/C797S/L858R limits assumed: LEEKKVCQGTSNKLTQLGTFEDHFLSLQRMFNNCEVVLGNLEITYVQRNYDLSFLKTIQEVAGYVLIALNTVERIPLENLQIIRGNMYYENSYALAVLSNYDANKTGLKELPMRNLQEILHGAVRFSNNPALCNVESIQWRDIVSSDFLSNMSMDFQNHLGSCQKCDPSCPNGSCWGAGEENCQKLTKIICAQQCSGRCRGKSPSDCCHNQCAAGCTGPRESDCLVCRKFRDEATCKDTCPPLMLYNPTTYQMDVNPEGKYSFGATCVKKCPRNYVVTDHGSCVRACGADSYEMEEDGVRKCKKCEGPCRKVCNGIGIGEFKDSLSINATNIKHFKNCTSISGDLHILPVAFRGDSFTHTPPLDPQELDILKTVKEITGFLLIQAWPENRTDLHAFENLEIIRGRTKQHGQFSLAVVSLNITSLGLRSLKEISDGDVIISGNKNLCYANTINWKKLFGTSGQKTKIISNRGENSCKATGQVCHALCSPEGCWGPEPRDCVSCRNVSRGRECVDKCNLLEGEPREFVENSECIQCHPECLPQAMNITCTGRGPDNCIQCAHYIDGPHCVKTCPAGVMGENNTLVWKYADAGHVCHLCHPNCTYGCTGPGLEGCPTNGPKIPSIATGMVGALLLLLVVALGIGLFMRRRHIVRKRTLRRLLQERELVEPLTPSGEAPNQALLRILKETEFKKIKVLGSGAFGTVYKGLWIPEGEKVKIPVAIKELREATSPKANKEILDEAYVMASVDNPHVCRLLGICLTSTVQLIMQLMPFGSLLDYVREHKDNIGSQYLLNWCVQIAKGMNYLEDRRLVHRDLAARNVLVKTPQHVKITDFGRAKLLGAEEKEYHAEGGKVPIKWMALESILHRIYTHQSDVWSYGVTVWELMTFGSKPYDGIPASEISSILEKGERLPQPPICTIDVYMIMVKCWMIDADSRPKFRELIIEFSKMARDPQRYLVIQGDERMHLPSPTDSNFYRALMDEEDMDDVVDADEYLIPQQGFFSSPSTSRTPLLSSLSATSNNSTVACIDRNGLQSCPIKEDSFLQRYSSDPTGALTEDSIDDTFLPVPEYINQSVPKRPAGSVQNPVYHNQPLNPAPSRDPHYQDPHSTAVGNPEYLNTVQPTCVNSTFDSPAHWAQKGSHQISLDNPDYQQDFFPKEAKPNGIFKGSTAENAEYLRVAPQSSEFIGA
UniProt P00533, with tags, fused parts or gaps DEL746-750/C797S limits assumed: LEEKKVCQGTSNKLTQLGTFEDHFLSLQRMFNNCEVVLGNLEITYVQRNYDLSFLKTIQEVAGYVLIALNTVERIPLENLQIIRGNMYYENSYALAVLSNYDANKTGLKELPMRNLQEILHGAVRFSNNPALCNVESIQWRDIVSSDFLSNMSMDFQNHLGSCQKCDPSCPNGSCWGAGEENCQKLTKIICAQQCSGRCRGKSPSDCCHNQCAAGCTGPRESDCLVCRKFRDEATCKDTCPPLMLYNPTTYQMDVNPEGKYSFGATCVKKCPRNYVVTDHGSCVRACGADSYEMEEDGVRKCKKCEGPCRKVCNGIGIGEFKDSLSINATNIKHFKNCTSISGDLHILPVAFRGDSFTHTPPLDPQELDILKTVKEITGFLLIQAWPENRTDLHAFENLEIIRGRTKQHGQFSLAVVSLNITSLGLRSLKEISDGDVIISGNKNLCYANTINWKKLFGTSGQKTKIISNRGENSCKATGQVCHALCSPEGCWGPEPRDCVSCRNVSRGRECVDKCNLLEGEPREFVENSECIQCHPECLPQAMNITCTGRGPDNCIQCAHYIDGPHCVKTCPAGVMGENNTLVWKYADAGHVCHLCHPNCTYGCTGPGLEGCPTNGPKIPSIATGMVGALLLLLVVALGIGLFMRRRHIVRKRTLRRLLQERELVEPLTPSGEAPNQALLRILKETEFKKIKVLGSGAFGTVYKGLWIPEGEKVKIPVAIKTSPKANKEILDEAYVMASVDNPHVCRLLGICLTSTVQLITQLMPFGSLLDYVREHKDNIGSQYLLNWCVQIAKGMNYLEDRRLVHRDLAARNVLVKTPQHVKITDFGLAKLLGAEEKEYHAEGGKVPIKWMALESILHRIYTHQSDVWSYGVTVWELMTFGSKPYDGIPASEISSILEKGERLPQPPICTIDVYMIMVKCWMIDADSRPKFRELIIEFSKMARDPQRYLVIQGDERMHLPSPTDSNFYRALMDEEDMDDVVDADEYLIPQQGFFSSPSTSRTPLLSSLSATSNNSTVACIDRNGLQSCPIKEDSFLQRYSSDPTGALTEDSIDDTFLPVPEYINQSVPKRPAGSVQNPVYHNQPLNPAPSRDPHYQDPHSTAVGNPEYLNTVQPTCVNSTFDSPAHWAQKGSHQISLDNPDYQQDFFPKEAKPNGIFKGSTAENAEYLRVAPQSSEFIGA
UniProt P00533, with tags, fused parts or gaps DEL746-750/T790M/C797S limits assumed: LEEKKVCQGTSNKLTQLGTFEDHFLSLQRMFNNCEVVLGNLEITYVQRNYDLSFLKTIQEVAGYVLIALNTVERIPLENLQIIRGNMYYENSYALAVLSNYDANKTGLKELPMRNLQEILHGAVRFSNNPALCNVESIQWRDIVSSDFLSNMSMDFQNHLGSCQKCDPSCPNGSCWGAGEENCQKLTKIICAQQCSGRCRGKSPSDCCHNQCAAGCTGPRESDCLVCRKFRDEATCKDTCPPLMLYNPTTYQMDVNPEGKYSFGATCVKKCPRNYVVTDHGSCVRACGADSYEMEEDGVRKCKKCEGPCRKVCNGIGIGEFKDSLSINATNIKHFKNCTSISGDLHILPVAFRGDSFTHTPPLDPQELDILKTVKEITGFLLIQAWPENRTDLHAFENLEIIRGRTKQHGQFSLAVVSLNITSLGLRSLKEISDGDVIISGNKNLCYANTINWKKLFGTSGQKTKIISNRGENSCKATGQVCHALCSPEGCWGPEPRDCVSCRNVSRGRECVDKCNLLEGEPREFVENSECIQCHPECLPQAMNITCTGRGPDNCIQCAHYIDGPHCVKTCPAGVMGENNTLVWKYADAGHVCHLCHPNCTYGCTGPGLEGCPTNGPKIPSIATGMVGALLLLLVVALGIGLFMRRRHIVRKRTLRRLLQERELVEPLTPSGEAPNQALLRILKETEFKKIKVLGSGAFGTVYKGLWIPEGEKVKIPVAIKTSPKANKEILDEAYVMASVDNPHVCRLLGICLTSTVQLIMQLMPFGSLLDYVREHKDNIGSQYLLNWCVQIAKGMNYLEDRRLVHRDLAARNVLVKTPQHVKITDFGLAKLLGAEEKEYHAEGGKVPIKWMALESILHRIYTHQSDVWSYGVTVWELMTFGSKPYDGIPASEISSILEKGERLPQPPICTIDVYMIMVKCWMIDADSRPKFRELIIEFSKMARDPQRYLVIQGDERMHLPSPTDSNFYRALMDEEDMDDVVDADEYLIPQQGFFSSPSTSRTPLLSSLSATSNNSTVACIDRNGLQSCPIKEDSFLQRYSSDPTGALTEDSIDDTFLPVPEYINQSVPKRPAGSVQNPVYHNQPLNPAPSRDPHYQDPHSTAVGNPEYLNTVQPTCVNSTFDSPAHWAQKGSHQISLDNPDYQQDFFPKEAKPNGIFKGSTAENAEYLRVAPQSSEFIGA
UniProt P00533, 25-1210 limits assumed: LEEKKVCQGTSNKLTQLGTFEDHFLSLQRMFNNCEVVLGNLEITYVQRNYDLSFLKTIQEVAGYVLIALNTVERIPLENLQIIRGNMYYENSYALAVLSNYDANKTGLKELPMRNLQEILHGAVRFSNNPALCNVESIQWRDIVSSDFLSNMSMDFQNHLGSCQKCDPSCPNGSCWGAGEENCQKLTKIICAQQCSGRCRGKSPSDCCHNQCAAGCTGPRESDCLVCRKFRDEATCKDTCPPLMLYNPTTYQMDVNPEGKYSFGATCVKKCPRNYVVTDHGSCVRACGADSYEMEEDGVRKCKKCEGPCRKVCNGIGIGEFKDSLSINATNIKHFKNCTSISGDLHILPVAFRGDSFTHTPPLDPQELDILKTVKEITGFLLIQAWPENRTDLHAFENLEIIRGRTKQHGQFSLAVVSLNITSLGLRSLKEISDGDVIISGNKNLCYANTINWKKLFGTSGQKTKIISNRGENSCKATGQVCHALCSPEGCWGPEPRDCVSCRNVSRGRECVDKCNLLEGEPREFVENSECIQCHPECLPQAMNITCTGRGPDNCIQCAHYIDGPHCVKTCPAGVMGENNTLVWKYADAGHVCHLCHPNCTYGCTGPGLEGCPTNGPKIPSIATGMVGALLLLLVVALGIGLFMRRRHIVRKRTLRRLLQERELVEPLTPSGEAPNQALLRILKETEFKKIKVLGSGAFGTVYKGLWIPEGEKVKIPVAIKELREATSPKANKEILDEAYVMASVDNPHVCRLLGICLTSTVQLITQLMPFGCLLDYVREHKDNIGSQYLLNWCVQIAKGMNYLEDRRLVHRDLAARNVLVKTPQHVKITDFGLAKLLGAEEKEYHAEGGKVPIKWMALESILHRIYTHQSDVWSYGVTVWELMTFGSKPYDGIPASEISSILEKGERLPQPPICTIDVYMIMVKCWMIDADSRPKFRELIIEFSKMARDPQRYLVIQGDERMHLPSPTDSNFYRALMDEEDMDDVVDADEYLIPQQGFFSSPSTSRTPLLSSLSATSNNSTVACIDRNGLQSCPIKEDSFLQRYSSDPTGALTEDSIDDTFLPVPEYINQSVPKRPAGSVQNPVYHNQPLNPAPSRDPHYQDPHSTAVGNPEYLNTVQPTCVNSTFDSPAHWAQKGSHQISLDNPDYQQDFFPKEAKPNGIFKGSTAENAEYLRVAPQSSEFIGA

Structure (SMILES) | IC50 ([1]; 1 mM ATP) | IC50 ([1]; ATP at Km) | IC50 [2] | IC50 ([3]; 1 mM ATP) | IC50 ([3]; ATP at Km) | IC50 ([4]; 1 mM ATP) | IC50 ([4]; ATP at Km) | IC50 ([5]; 1 mM ATP) | IC50 ([5]; ATP at Km)
C[C@H]1CCOc2c(cnn2C)-c2nccc(n2)Nc2cc(c(C=Cc3cnn(C)c3)cn2)N1 | > 1000 nM | 100 to 1000 nM | 100 to 1000 nM | 100 to 1000 nM | 100 to 1000 nM | 10 to 100 nM | < 10 nM | 10 to 100 nM | < 10 nM
Cc1cc2nc(n1)-c1cnn(C)c1OCC[C@H](C)Nc1cc(ncc1C#Cc1cnn(C)c1)N2 | > 1000 nM | > 1000 nM | > 1000 nM | > 1000 nM | > 1000 nM | > 1000 nM | 10 to 100 nM | > 1000 nM | 100 to 1000 nM
Cn1ncc2c1OC[C@@H](F)CNc1cc(ncc1C#Cc1cnn(CC(F)(F)F)c1)Nc1ccnc-2n1 | > 1000 nM | 10 to 100 nM | 100 to 1000 nM | > 1000 nM | 100 to 1000 nM | 10 to 100 nM | < 10 nM | 10 to 100 nM | < 10 nM
Cc1nn(C)c2c1-c1nccc(n1)Nc1cc(c(C#Cc3cnn(C)c3C3CC3)cn1)NCC[C@H](C)O2 | 10 to 100 nM | < 10 nM | < 10 nM | < 10 nM | < 10 nM | < 10 nM | < 10 nM | < 10 nM | < 10 nM
Cc1nn(C)c2c1-c1nccc(n1)Nc1cc(c(C#Cc3cnn(CCF)c3)cn1)N[C@@H](C)CCO2 | 10 to 100 nM | < 10 nM | < 10 nM | < 10 nM | < 10 nM | < 10 nM | < 10 nM | < 10 nM | < 10 nM
Cc1nn(C)c2c1-c1nccc(n1)Nc1cc(c(C#Cc3ccc(S(C)(=O)=O)cc3)cn1)NCC[C@H](C)O2 | 10 to 100 nM | < 10 nM | < 10 nM | < 10 nM | < 10 nM | < 10 nM | < 10 nM | < 10 nM | < 10 nM
Cc1nn(C)cc1C#Cc1cnc2cc1NCC[C@@H](C)Oc1c(c(C)nn1C)-c1nccc(n1)N2 | 100 to 1000 nM | < 10 nM | 10 to 100 nM | 10 to 100 nM | < 10 nM | < 10 nM | < 10 nM | < 10 nM | < 10 nM
CCn1ncc2c1OCC[C@H](C)Nc1cc(ncc1C#Cc1cnn(C(F)F)c1)Nc1ccnc-2n1 | > 1000 nM | 10 to 100 nM | 10 to 100 nM | 100 to 1000 nM | 10 to 100 nM | < 10 nM | < 10 nM | < 10 nM | < 10 nM
Cn1ncc2c1OC[C@@H](F)CNc1cc(ncc1C#Cc1cnn(C(F)(F)F)c1)Nc1ccnc-2n1 | > 1000 nM | > 1000 nM | 100 to 1000 nM | > 1000 nM | > 1000 nM | 10 to 100 nM | < 10 nM | 10 to 100 nM | < 10 nM
C[C@H]1CCOc2c(cnn2CC(F)(F)F)-c2nccc(n2)Nc2cc(c(C#Cc3cnn(C)c3)cn2)N1 | 100 to 1000 nM | 10 to 100 nM | 100 to 1000 nM | 100 to 1000 nM | 100 to 1000 nM | < 10 nM | < 10 nM | < 10 nM | < 10 nM
C[C@@H]1CCOc2c(cnn2C)-c2nccc(n2)Nc2cc(c(C#Cc3cnn(C)c3)cn2)N1 | > 1000 nM | 10 to 100 nM | 100 to 1000 nM | > 1000 nM | 100 to 1000 nM | 10 to 100 nM | < 10 nM | 10 to 100 nM | < 10 nM
C[C@@H]1CCOc2c(cnn2C)-c2nccc(n2)Nc2cc(c(C#Cc3cnn(CC(F)(F)F)c3)cn2)N1 | > 1000 nM | > 1000 nM | > 1000 nM | > 1000 nM | 100 to 1000 nM | 10 to 100 nM | < 10 nM | 100 to 1000 nM | 10 to 100 nM
Cn1cc(C#Cc2cnc3cc2NC[C@@H](F)COc2c(cnn2C)-c2nccc(n2)N3)cn1 | > 1000 nM | > 1000 nM | > 1000 nM | > 1000 nM | > 1000 nM | 10 to 100 nM | < 10 nM | 100 to 1000 nM | 10 to 100 nM
C[C@H]1CCOc2c(cnn2C)-c2nccc(n2)Nc2cc(c(C#Cc3cn(C)nc3C(F)(F)F)cn2)N1 | > 1000 nM | 10 to 100 nM | 10 to 100 nM | 10 to 100 nM | 10 to 100 nM | < 10 nM | < 10 nM | < 10 nM | < 10 nM
Cn1ncc2c1OCC1(CNc3cc(ncc3C#Cc3cnn(C(F)(F)F)c3)Nc3ccnc-2n3)COC1 | > 1000 nM | 100 to 1000 nM | 100 to 1000 nM | > 1000 nM | 100 to 1000 nM | 10 to 100 nM | < 10 nM | 10 to 100 nM | < 10 nM
C[C@H]1CCOc2c(cnn2C)-c2nccc(n2)Nc2cc(c(C#Cc3cccnc3)cn2)N1 | 10 to 100 nM | < 10 nM | < 10 nM | < 10 nM | < 10 nM | < 10 nM | < 10 nM | < 10 nM | < 10 nM
C[C@H]1CCOc2c(cnn2C)-c2nccc(n2)Nc2cc(c(C#Cc3cnn(C(F)(F)F)c3)cn2)N1 | 100 to 1000 nM | < 10 nM | 10 to 100 nM | 100 to 1000 nM | 10 to 100 nM | < 10 nM | < 10 nM | < 10 nM | < 10 nM
Cc1nn(C)c2c1-c1nccc(n1)Nc1cc(c(C#Cc3cnn(C(F)(F)F)c3)cn1)N[C@@H](C)CCO2 | > 1000 nM | 10 to 100 nM | 10 to 100 nM | 10 to 100 nM | 10 to 100 nM | < 10 nM | < 10 nM | < 10 nM | < 10 nM
C[C@H]1CCOc2c(cnn2C)-c2ncc(F)c(n2)Nc2cc(c(C#Cc3cnn(CC(F)(F)F)c3)cn2)N1 | > 1000 nM | 100 to 1000 nM | > 1000 nM | > 1000 nM | > 1000 nM | 10 to 100 nM | 10 to 100 nM | 100 to 1000 nM | < 10 nM
Cc1nn(C)c2c1-c1nccc(n1)Nc1cc(c(C#Cc3cn(C)nc3C#N)cn1)N[C@@H](C)CCO2 | 100 to 1000 nM | < 10 nM | 10 to 100 nM | 10 to 100 nM | < 10 nM | < 10 nM | < 10 nM | < 10 nM | < 10 nM
